RAD52 inh = blocks human RAD52 DNA annealing; P43351; recombinant RAD52 DNA annealing, FRET fluorescence; inhibition, % at 18.7 µM; actives 0.46% (n = 360,000); AID 651710;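 active means every replicate showing at least 50% inhibition; inconclusive means mean inhibition at least 50% but not in every replicate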
SIRT5 inh = blocks human SIRT5 desuccinylation of peptide; Purified SirT5, succinyl-peptide AMC, trypsin-coupled fluorescence; inhibition, % at 15 µM; actives 1.1% (n = 330,000); AID 652115; in the data active means inhibition above about 15%; inconclusive means no clear call, values can overlap the other calls
MLL AF4-AF9 inh = inhibitors of human MLL-AF4/AF9 interaction; inhibition, % at 10 µM; AID 651704; AlphaScreen, biotin-AF4 peptide binding to FLAG-AF9; actives 0.47% (n = 350,000);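 active means every replicate reaching a set inhibition limit, whatever the replicate mean, cut at about 25% in these data; inconclusive means mean inhibition reaches that limit but some replicates miss it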;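 further: 0% = plate neutral control median and 100% = total signal loss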
UUG fidelity = yeast start codon fidelity modulation | S. cerevisiae UUG-firefly luciferase reporter, luminescence/redox ratio | activity score, % at 18.7 µM | hit rate 0.13% among 350,000 | AID 602363;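 active means replicate mean at a twofold rise or more, about +100% in these data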;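 further: firefly luciferase made from a UUG start codon reports start codon fidelity; reporter light over untreated wells divided by growth signal over untreated wells; some hits fall short of that in this replicate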
RAD54 branch = blocks human RAD54 Holliday junction branch migration; Q92698; FAM/BHQ fluorescence; actives 0.14% (n = 360,000); inhibition, % at 10.4 µM;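 active means mean normalized replicate activity at least 40 and at least half of replicates scoring 40 or more; inconclusive means only one of the two criteria met; inactive means mean below 40 and under half of replicates reaching 40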;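 further: 0% = median of neutral control wells and 100% = median of positive control wells; inhibitors cause a drop in the FAM fluorescence signal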
E-selectin induc = induces E-selectin expression in human endothelial cells; P16581; HUVEC E-selectin immunofluorescence imaging; normalized: neutral wells 0, TNF-alpha wells 100; actives 0.37% (n = 260,000); activation, % at 7.58 µM;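 active means mean E-selectin-positive cell signal at least 10% of the positive control, reached in at least 60% of replicates, without over 20% cell loss; inconclusive means no rule given, readout overlaps actives, possibly toxicity-flagged; inactive means the rest, including those meeting only one limit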
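assay system = HUVEC, human umbilical vein endothelial cells | input = 3,000 HUVEC seeded per well | medium = EGM-2 growth medium on 0.1% gelatin-coated wells | dosing = one compound dose added by pin transfer | signal = immunofluorescence imaging | read-out basis = % PE-positive cells | control set = TNF-alpha, DMSO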
RAD52 DNA ctr = DNA binding artifact in RAD52 counter-screen; actives 8% (n = 1,000); Salmon sperm DNA/acridine orange FP displacement; shares compounds with RAD52 inh; AC50, µM;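 active means fitted half-maximal concentration for signal loss at or below twice the highest dose tested, in every separate run, actives reach about 64 µM in these data; inconclusive means runs disagree, or flat partial signal loss, or poor fit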
* = called active by the depositor; i = inactive; ? = inconclusive; . = no result. Only some compounds are listed: those with a hit (about 1.8% of all), similar ones and a draw of the others.

Short keys – A = RAD52 inh; B = SIRT5 inh; C = MLL AF4-AF9 inh; D = UUG fidelity; E = RAD54 branch; F = E-selectin induc; G = RAD52 DNA ctr
1) CO[C@H]1CN(C)C(=O)c2ccc(NC(=O)C3CC3)cc2OC[C@@H](C)N(C(=O)C2CCCCC2)C[C@H]1C
  A: 2 | B: 0 | C: 0 | D: 2 | E: 0 | F: 0 | G: .

2) C[C@H](CO)N1C[C@H](C)[C@H](CN(C)C(=O)Nc2ccccc2)Oc2ncc(C3=CCCC3)cc2C1=O
  A: 20 | B: -6 | C: -3 | D: 9 | E: -2 | F: 0 | G: .

3) O=C1/C(=C\c2ccccc2)CN(C(=O)CCN2CCCCC2)C/C1=C/c1ccccc1
  A: 55* | B: -2 | C: -3 | D: . | E: . | F: 0 | G: i

4) CCN(CC)CCC(=O)N1C/C(=C/c2ccccc2)C(=O)/C(=C\c2ccccc2)C1
  A: 36 | B: -5 | C: -2 | D: . | E: . | F: 0 | G: .

5) CN1CCN(c2ccc(CNC(=O)c3cccc4c(-c5ccc(F)c(F)c5)coc34)cc2)CC1
  A: . | B: . | C: . | D: 4 | E: 16 | F: . | G: .

6) CN1CCN(c2ccc(CNC(=O)c3ccc(-c4ccc(F)c(F)c4)c4ccoc34)cc2)CC1
  A: 54* | B: . | C: 9 | D: -8 | E: 3 | F: 0 | G: i

7) CN(C)CCCn1c(=S)[nH]c2sc3c(c2c1=O)CCCC3
  A: 97* | B: -6 | C: 9 | D: -16 | E: 11 | F: 0 | G: i

8) Cc1ccccc1CN1C(=O)c2ccccc2Sc2ccc(C(=O)NCCN3CCOCC3)cc21
  A: -22 | B: 1 | C: 8 | D: 10 | E: 12 | F: . | G: .

9) CCN1CCN(CCCNC(=O)c2ccc(/C=C3/Sc4ccccc4N(Cc4ccccc4F)C3=O)cc2)CC1
  A: 76* | B: -2 | C: 8 | D: -11 | E: 54* | F: . | G: i

10) O=C(NCCCN1CCOCC1)c1ccc(/C=C2\Oc3ccccc3N(Cc3ccccc3F)C2=O)cc1
  A: -11 | B: -4 | C: -2 | D: -2 | E: 3 | F: . | G: .

11) CCN1CCN(CCNC(=O)c2ccc(/C=C3/Sc4ccccc4N(Cc4ccccc4C)C3=O)cc2)CC1
  A: 55* | B: -2 | C: 21 | D: 9 | E: 1 | F: . | G: i

12) O=C(Nc1ccccc1)[C@@H]1[C@@H](CO)[C@@H]2Cn3c(cccc3=O)[C@@H]2N1C(=O)C1CCC1
  A: -1 | B: 0 | C: -1 | D: -16 | E: 13 | F: 0 | G: .

13) C[C@@H]1CN([C@H](C)CO)C(=O)c2cc(NC(=O)CCC(F)(F)F)ccc2O[C@H]1CN(C)S(=O)(=O)c1cn(C)cn1
  A: 6 | B: 4 | C: -6 | D: 26 | E: 18 | F: 4 | G: .

14) C[C@H](CO)N1C[C@H](C)[C@@H](CN(C)C(=O)C2CCCCC2)Oc2ncc(C#CC(C)(C)O)cc2C1=O
  A: . | B: . | C: . | D: 7 | E: . | F: 0 | G: .

15) CCN(CC)CCN1C(=O)/C(=C\c2ccc(Cl)c([N+](=O)[O-])c2)SC1=Nc1ccc(OC)cc1
  A: 80* | B: . | C: 19 | D: -3 | E: 7 | F: 0 | G: i

16) CCCCCCCC[n+]1cccc(C(=O)N(CC)CC)c1
  A: 3 | B: -5 | C: -2 | D: . | E: . | F: . | G: .

17) CCCCCCCCCCCCCCCC[n+]1cccc(C(=O)N(CC)CC)c1
  A: 88* | B: -4 | C: 4 | D: 25 | E: 40 | F: 2 | G: i

18) CC(C)NC(=O)Nc1ccc2c(c1)C(=O)N([C@@H](C)CO)C[C@@H](C)[C@H](CN(C)Cc1ccncc1)OCCCC[C@H](C)O2
  A: -22 | B: -2 | C: 0 | D: . | E: 13 | F: 0 | G: .

19) COc1cccc(-c2nn(C)c3sc(C(=O)NCc4ccccn4)cc23)c1
  A: . | B: . | C: . | D: -20 | E: 7 | F: . | G: .

20) CCN(CC)CCNC(=O)c1cc2c(-c3cccc(OC)c3)nn(C)c2s1
  A: 68* | B: -13 | C: 9 | D: . | E: . | F: 1 | G: i

21) COCCCn1c(=N)c(C(N)=S)cc2c(=O)n3cccc(C)c3nc21
  A: 34 | B: -32 | C: 11 | D: -9 | E: 30 | F: . | G: .

22) Cc1cccn2c(=O)c3cc(C(N)=S)c(=N)n(CCCN4CCOCC4)c3nc12
  A: 86* | B: . | C: 1 | D: . | E: . | F: 3 | G: i

23) Cc1ccc2nc3c(cc(C(=O)NCc4ccccc4)c(=N)n3CCCn3ccnc3)c(=O)n2c1
  A: -256 | B: -8 | C: -1 | D: -18 | E: 27 | F: 2 | G: .

24) Cc1cccn2c(=O)c3cc(C(=O)NC(C)c4ccccc4)c(=N)n(CCCn4ccnc4)c3nc12 (stereo unspecified)
  A: 68* | B: -30 | C: -30 | D: . | E: . | F: 0 | G: i

25) CC(C)NC(=O)N(C)C[C@H]1OCCCC[C@H](C)Oc2ccc(NC(=O)C3CCCCC3)cc2C(=O)N([C@H](C)CO)C[C@@H]1C
  A: -3 | B: 1 | C: -3 | D: . | E: 1 | F: . | G: .

26) CN(C)CCCNC(=O)C[C@H]1C[C@H](C(=O)N2CCOCC2)[C@@]2(CCC3CCCC3)c3[nH]c4cc(-c5ccco5)ccc4c3CCN2C1=O
  A: 52* | B: -6 | C: 41* | D: 17 | E: 29 | F: 0 | G: i

27) CC(C)C[C@@H]1COCc2cn(nn2)CC[C@H](Cc2ccccc2)C(=O)N1
  A: 2 | B: -2 | C: 0 | D: . | E: . | F: 0 | G: .

28) Cc1ccc(S(=O)(=O)N(C)C[C@H]2OCCCC[C@@H](C)Oc3ccc(NS(=O)(=O)c4cn(C)cn4)cc3C(=O)N([C@H](C)CO)C[C@H]2C)cc1
  A: -11 | B: 4 | C: 0 | D: 17 | E: 8 | F: . | G: .

29) OC(c1ccccc1)(c1ccccc1)C1CCN(CCCOc2cc(F)cc(F)c2)CC1
  A: -2 | B: 1 | C: . | D: . | E: . | F: 0 | G: .

30) OC(c1ccccc1)(c1ccccc1)C1CCN(CCCOc2ccc3c(c2)CCCC3)CC1
  A: 51* | B: 0 | C: 5 | D: . | E: . | F: 0 | G: i

31) Cn1c(CNc2cccc(C(F)(F)F)c2)n[nH]c1=S
  A: 14 | B: -2 | C: -5 | D: . | E: . | F: . | G: .

32) Cn1c(-c2csc(-c3cccc(C(F)(F)F)c3)n2)n[nH]c1=S
  A: 96* | B: -2 | C: -4 | D: . | E: . | F: 1 | G: i

33) CO[C@@H]1CN(C)C(=O)c2ccc(NS(=O)(=O)c3ccc(Oc4ccccc4)cc3)cc2OC[C@@H](C)NC[C@@H]1C
  A: . | B: . | C: . | D: . | E: . | F: 0 | G: .

34) CN(C)c1ccc(NC(=O)CN2CCC(NC(=O)C3CCCCC3)CC2)cc1
  A: 72* | B: -3 | C: 51* | D: . | E: . | F: 0 | G: i

35) Cc1ccc(NCCN(C)C)c2c(=O)c3cc(O)ccc3sc12
  A: 84* | B: 5 | C: 39* | D: . | E: . | F: 0 | G: 12µM*

36) CN(C)CCNc1ccc2nnn3c4ccc(O)cc4c(=O)c1c23
  A: 48 | B: 1 | C: -4 | D: . | E: . | F: 0 | G: .

37) O=C(NC1CCCCC1)N[C@@H]1CC[C@@H](CCNS(=O)(=O)c2ccc(Cl)cc2)O[C@H]1CO
  A: 10 | B: 7 | C: 3 | D: 27 | E: 5 | F: 0 | G: .

38) C[C@@H]1CCCCO[C@@H](CN(C)S(C)(=O)=O)[C@@H](C)CN([C@H](C)CO)C(=O)c2cc(NC(=O)c3ccccc3)ccc2O1
  A: 2 | B: 2 | C: -1 | D: -12 | E: -4 | F: 0 | G: .

39) CN(C)CCOC(=O)c1ccc2[nH]c3c(c2c1)CSCC3
  A: 99* | B: -2 | C: 21 | D: . | E: . | F: 5 | G: i

40) CN1CCN(c2ccc(CNC[C@H]3O[C@@H](n4cnc5c(=O)[nH]c(N)nc54)[C@H](O)[C@@H]3O)c(F)c2)CC1
  A: 82* | B: -4 | C: 0 | D: -11 | E: -5 | F: 0 | G: i

41) Cc1cc(C)c2c(=N)c3ccccc3n(CCCCCCCCn3c4ccccc4c(=N)c4c(C)cc(C)nc43)c2n1
  A: 67* | B: -4 | C: ? | D: . | E: . | F: 0 | G: 16µM*

Entries above containing two or more sulfur atoms:
Short keys – A = RAD52 inh; B = SIRT5 inh; C = MLL AF4-AF9 inh; D = UUG fidelity; E = RAD54 branch; F = E-selectin induc; G = RAD52 DNA ctr
7) CN(C)CCCn1c(=S)[nH]c2sc3c(c2c1=O)CCCC3
  A: 97* | B: -6 | C: 9 | D: -16 | E: 11 | F: 0 | G: i

28) Cc1ccc(S(=O)(=O)N(C)C[C@H]2OCCCC[C@@H](C)Oc3ccc(NS(=O)(=O)c4cn(C)cn4)cc3C(=O)N([C@H](C)CO)C[C@H]2C)cc1
  A: -11 | B: 4 | C: 0 | D: 17 | E: 8 | F: . | G: .

32) Cn1c(-c2csc(-c3cccc(C(F)(F)F)c3)n2)n[nH]c1=S
  A: 96* | B: -2 | C: -4 | D: . | E: . | F: 1 | G: i

Screening results (PubChem BioAssay)
